{"source": "PubChem BioAssay AID651640", "about": "(Broad Institute, 2012)", "note": "The list shows a part of the results, in another mix than the full data. Records with an inconclusive call do not appear. Calls of active or inactive are those of the source. No stated cut-off is given here; in the data, active means CPE inhibition above about 20% (passing the limit was not always enough); inconclusive means no clear call, values can overlap the other calls; tested in BHK-21 cells.", "data": [{"experiment": "inhibitors of DENV2 cytopathic effect, primary screen, cell-based, plate reader, single concentration (AID 651640);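 further: 0% = median of neutral control wells and 100% = median of positive control wells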", "settings": "DENV2-infected cells, cytopathic effect rescue, at 9.99 µM, stronger effect = higher value", "values": [{"smiles": "COc1cc(I)ccc1[As](=O)(O)O", "CPE inhibition": "inactive: 12%"}, {"smiles": "Cc1c2c(nc3ccccc13)SC(C(Cl)Cl)C2", "note": "(stereo not given)", "CPE inhibition": "inactive: -5.27%"}, {"smiles": "O=C(NC(Sc1ccncn1)C(Cl)(Cl)Cl)c1ccccc1", "note": "(stereo not given)", "CPE inhibition": "inactive: 4.91%"}, {"smiles": "Nc1cc(N)c2nonc2c1[N+](=O)[O-]", "CPE inhibition": "inactive: 11.3%"}, {"smiles": "Clc1ccc(Cl)c(NC2=NCC(CBr)S2)c1", "note": "(stereo not given)", "CPE inhibition": "inactive: 10.4%"}, {"smiles": "Cc1ccc(OP(=O)(Nc2nccs2)Oc2ccc(C)cc2)cc1", "CPE inhibition": "inactive: 1.41%"}, {"smiles": "CN(C(=O)Cc1ccc(Cl)c(Cl)c1)[C@H]1CCCC[C@H]1N1CCCC1", "CPE inhibition": "inactive: 1.16%"}, {"smiles": "Cc1ccc(N/C(=N/P(=O)(N2CCOCC2)N2CCOCC2)N2CCOCC2)cc1", "CPE inhibition": "inactive: 2.52%"}, {"smiles": "NC(=O)c1cc([N+](=O)[O-])cc([N+](=O)[O-])c1N", "CPE inhibition": "inactive: 0.89%"}, {"smiles": "Nc1cccc2ccc([As](=O)(O)O)cc12", "CPE inhibition": "inactive: -3.9%"}, {"smiles": "CN(C(=O)Cc1ccccc1)C1CC[C@@]2(CCCO2)C[C@@H]1N1CCCC1", "note": "(stereo not given in full)", "CPE inhibition": "inactive: 2.3%"}, {"smiles": "CN(C(=O)Cc1ccc(Cl)c(Cl)c1)[C@H]1CCCC[C@@H]1N1CCCC1", "CPE inhibition": "inactive: 4.21%"}, {"smiles": "Cc1ccc(NP(=O)(Oc2ccccc2F)Oc2ccccc2F)nc1", "CPE inhibition": "inactive: -2.51%"}, {"smiles": "O=P(Nc1nc2ccc(Cl)cc2s1)(c1ccccc1)c1ccccc1", "CPE inhibition": "inactive: -1.73%"}, {"smiles": "CN(C)P(=O)(N(C)C)n1c(Nc2ccccc2)nnc1-c1ccccc1", "CPE inhibition": "inactive: -2.36%"}, {"smiles": "CC(=O)Nc1ccc([As](=O)(O)O)cc1", "CPE inhibition": "inactive: 1.68%"}, {"smiles": "O=C(O)c1ccccc1[As](=O)(O)O", "CPE inhibition": "inactive: -8.81%"}, {"smiles": "CCCC1OP(N)(=O)OCC1CC", "note": "(stereo not given)", "CPE inhibition": "inactive: -2.54%"}, {"smiles": "O=C(O)CNc1ccc([As](=O)(O)O)cc1", "CPE inhibition": "inactive: -3.53%"}, {"smiles": "COC(=O)C1(C)COP(=O)(Nc2ccccc2)OC1", "note": "(stereo not given)", "CPE inhibition": "inactive: 3.25%"}, {"smiles": "O=[N+]([O-])c1cccc(NC2=NCC(CBr)S2)c1", "note": "(stereo not given)", "CPE inhibition": "inactive: -1.99%"}, {"smiles": "O=[N+]([O-])c1ncn(CCn2ncnc2[N+](=O)[O-])n1", "CPE inhibition": "inactive: 9.14%"}, {"smiles": "CC(C)(C)C(=O)NC(Sc1ccncn1)C(Cl)(Cl)Cl", "note": "(stereo not given)", "CPE inhibition": "inactive: -2%"}, {"smiles": "O=C(Nc1cc([As](=O)(O)O)ccc1O)c1ccccc1", "CPE inhibition": "inactive: 5.18%"}, {"smiles": "O=P1(N(CCCl)CCCl)OCCCS1", "note": "(stereo not given)", "CPE inhibition": "inactive: 15.7%"}, {"smiles": "c1cc(-c2nn[nH]n2)ccc1-c1nn[nH]n1", "CPE inhibition": "inactive: 6.59%"}, {"smiles": "CC(C)c1nc(Nc2ccccc2)n(P(=O)(N(C)C)N(C)C)n1", "CPE inhibition": "inactive: -1.53%"}, {"smiles": "CC(C)=N/N=C(\\N)N[N+](=O)[O-]", "CPE inhibition": "inactive: -0.299%"}, {"smiles": "CCN(/C(=N/P(=O)(N1CCOCC1)N1CCOCC1)N1CCOCC1)c1ccc(OC)cc1", "CPE inhibition": "inactive: -7.98%"}, {"smiles": "Nc1ccc([As](=O)(O)c2ccc(N)cc2)cc1", "CPE inhibition": "inactive: -2.16%"}, {"smiles": "C[N+]1=C2C=CC=CC=C2SC12C([N+](=O)[O-])=CC([N+](=O)[O-])=C[C-]2[N+](=O)[O-]", "note": "(stereo not given)", "CPE inhibition": "inactive: 3.18%"}, {"smiles": "Cc1ccc(NP(=O)(Oc2ccccc2)Oc2ccccc2)nc1", "CPE inhibition": "inactive: -4.59%"}, {"smiles": "O=[N+]([O-])c1cc([N+](=O)[O-])c(CCNc2ccccc2)c([N+](=O)[O-])c1", "CPE inhibition": "inactive: -6.31%"}, {"smiles": "COc1ccc(C2=NCC(CBr)S2)cc1", "note": "(stereo not given)", "CPE inhibition": "inactive: -2.15%"}, {"smiles": "C/C(N)=N\\P(=O)(OCc1ccccc1)OCc1ccccc1", "CPE inhibition": "inactive: 0.268%"}, {"smiles": "C(Cc1nn[nH]n1)Cc1nn[nH]n1", "CPE inhibition": "inactive: 17.5%"}, {"smiles": "Nc1ccc([As](=O)(O)c2ccc([N+](=O)[O-])cc2)cc1", "CPE inhibition": "inactive: -1.57%"}, {"smiles": "O=[As](O)(c1ccccc1)c1ccc(O)cc1", "CPE inhibition": "inactive: 2.53%"}, {"smiles": "O=[N+]([O-])c1ncn(CCn2cnc([N+](=O)[O-])n2)n1", "CPE inhibition": "inactive: 1.3%"}, {"smiles": "CC(=O)NC(SC(=S)N(C)C)C(Cl)(Cl)Cl", "note": "(stereo not given)", "CPE inhibition": "inactive: -10.2%"}, {"smiles": "O=P(Nc1nc2ccccc2s1)(c1ccccc1)c1ccccc1", "CPE inhibition": "inactive: 6.34%"}, {"smiles": "C[C@H]1OP(=O)(Oc2ccccc2)[C@H](O)[C@H](O)[C@H]1N=[N+]=[N-]", "note": "(stereo not given in full)", "CPE inhibition": "inactive: 19.7%"}, {"smiles": "CN(C)C1(CNC(=O)c2ccc(Cl)c(S(N)(=O)=O)c2)CCCCC1", "CPE inhibition": "inactive: 2.62%"}, {"smiles": "O=P(Nc1ccccn1)(c1ccc(Br)cc1)c1ccc(Br)cc1", "CPE inhibition": "inactive: 1.93%"}, {"smiles": "COc1ccc(N)c([N+](=O)[O-])c1[N+](=O)[O-]", "CPE inhibition": "inactive: -2.94%"}, {"smiles": "Nc1ccc(CCCCOc2ccccc2)cc1", "CPE inhibition": "inactive: 4.21%"}, {"smiles": "CC(NC(=O)COC(=O)C(O)(c1ccccc1)c1ccccc1)c1ccccc1", "note": "(stereo not given)", "CPE inhibition": "inactive: -2.52%"}, {"smiles": "Cc1ccccc1OP(=O)(Nc1ccccn1)Oc1ccccc1C", "CPE inhibition": "inactive: 19.5%"}, {"smiles": "O=c1c2cc([N+](=O)[O-])ccc2[nH]c2c([N+](=O)[O-])cc([N+](=O)[O-])cc12", "CPE inhibition": "inactive: 4.91%"}, {"smiles": "CN(C)C(=O)Oc1noc2ccccc12", "CPE inhibition": "inactive: 2%"}, {"smiles": "O=P1(N(CCCl)CCCl)OCCC2CCCCN21", "note": "(stereo not given)", "CPE inhibition": "inactive: -3.83%"}, {"smiles": "c1ccc(-c2nn[nH]n2)c(-c2nn[nH]n2)c1", "CPE inhibition": "inactive: -9.04%"}, {"smiles": "Cc1ccc(NP(=O)(Oc2cccc(C)c2)Oc2cccc(C)c2)nc1", "CPE inhibition": "inactive: -3.87%"}, {"smiles": "O=C(NC1CCS(=O)(=O)C1)NP(=S)(Oc1ccccc1)Oc1ccccc1", "note": "(stereo not given)", "CPE inhibition": "inactive: 4.22%"}, {"smiles": "CCNC(=S)/N=C(\\N)N[N+](=O)[O-]", "CPE inhibition": "inactive: 17.5%"}, {"smiles": "CC(=O)Nc1ccc([As](=O)(O)O)c(O)c1", "CPE inhibition": "inactive: 0.769%"}, {"smiles": "CC(=O)Nc1ccc(Oc2c([N+](=O)[O-])cc([N+](=O)[O-])cc2[N+](=O)[O-])cc1", "CPE inhibition": "inactive: 3.89%"}, {"smiles": "Cc1ccccc1CN(C)C(=O)COC(=O)C(O)(c1ccccc1)c1ccccc1", "CPE inhibition": "inactive: -17.8%"}, {"smiles": "C[C@H]1OP(=O)(Oc2ccccc2)C[C@@H]2O[C@@H]21", "note": "(stereo not given in full)", "CPE inhibition": "inactive: 2.27%"}, {"smiles": "C[C@@H]1C=CCP(=O)(Oc2ccccc2)O1", "note": "(stereo not given in full)", "CPE inhibition": "inactive: -0.813%"}, {"smiles": "CC(=O)c1ccc(N2CC2c2ccncc2)cc1", "note": "(stereo not given)", "CPE inhibition": "inactive: -4.22%"}, {"smiles": "N#C/C(=C\\c1ccc(N(CCBr)CCBr)cc1)C(N)=O", "CPE inhibition": "inactive: -4.24%"}, {"smiles": "COC(=O)C1(C)COP(=O)(NCc2ccccc2)OC1", "note": "(stereo not given)", "CPE inhibition": "inactive: -2.95%"}, {"smiles": "CC(C)(C)C(=O)NC(Sc1ccccc1)C(Cl)(Cl)Cl", "note": "(stereo not given)", "CPE inhibition": "inactive: -3.21%"}, {"smiles": "CCOc1ccc(C2=NCC(CBr)S2)cc1", "note": "(stereo not given)", "CPE inhibition": "inactive: -7.14%"}]}]}
